Laboratory results published in ChEMBL document CHEMBL1154537, “Synthesis and evaluation of pyrido-thieno-pyrimidines as potent and selective Cdc7 kinase inhibitors” (Bioorg Med Chem Lett, 2009).

Key:
[1] = species on record: Homo sapiens; test: Selectivity for human recombinant Cdc7/Dbf4 over human CDK1
[2] = species on record: Homo sapiens; test: Selectivity for human recombinant Cdc7/Dbf4 over human CDK2
[3] = species on record: Homo sapiens; test: Selectivity for human recombinant Cdc7/Dbf4 over human CDK4

Measured: Selectivity ratio

C=CCc1c(C)nc2sc3c(N)ncnc3c2c1C
> 500: all assays above
